From patent US20230085439A1

Legend:
[1] = biological target: hMPV A2 F (human metapneumovirus)
[2] = biological target: hMPV B1 F (human metapneumovirus)

B1: MPV465 (antibody, V domains shown)
VH: EVQLVESGGGVVQPGTSLRLTCVASGFTFGTYGMYWLRQSPGKGLEWVAFIWLDGSKTYYADSVKGRFTVSRDNSKNKLYLEMNSLSAEDTAMYYCARAPGSVWYDTRGHMKGWFDPWGQGTLVTVAS
VL: QSVLTQTPSVSGTPGQRVTISCSGSSSNIENNYLYWYQQLPGTAPKLLIYGDNRRPSGVPDRFSGSKSGTSASLAISGLRSEDEADYYCATWDDNLSGPVFGGGTKVTVL
- EC50 [1]: 0.47 µg/mL
- EC50 [2]: 0.12 µg/mL
